Data taken from patent US12276657B2, “Detection of PAR in the CSF of patients with Parkinson's disease” (The Johns Hopkins University, priority 2017, dated 2025).

System: SH-SYSY cells
Experiment: α-syn aggregation and PARP activation in SH-SYSY cells transfected with α-syn (MNNG or PAR delivery)
Assay type: cell-based
Details: 50 μM MNNG 15 min

CN(N=O)C(=N)N[N+](=O)[O-]
aggregation of α-syn after MNNG in PARP-1 KO cells (PARP-1 KO SH-SYSY cells): has no effect in PARP-1 KO SH-SYSY cells | aggregation of overexpressed α-syn after MNNG (WT SH-SYSY cells, 6 h after): enhances the aggregation of overexpressed WT or A53T α-syn
